Measurements published in patent publication US20210220347A1 (priority 2015, published 2021).

Test: Plasma concentrations of buprenorphine and norbuprenorphine (LC/MS/MS)
Settings: buccal film; Safety Population

## CO[C@]12CC[C@@]3(C[C@@H]1[C@](C)(O)C(C)(C)C)[C@H]1Cc4ccc(O)c5c4[C@@]3(CCN1)[C@H]2O5
  Plasma concentrations following the 450-μg dose compared with the 300-μg dose: higher
